Laboratory results published in US7381799B2, “Compositions and methods for inhibiting angiogenesis” (Ergon Pharmaceuticals LLC, priority 2000, dated 2008).

Tested on: human umbilical vein endothelial cells (HUVECs)
Details: for IC50: 48 h; for Inhibition of bFGF-induced proliferation of HUVECs (in words): bFGF-stimulated HUVECs, FIG. 2 (peptides), FIG. 5 (mabs)

| Compound | IC50 [µM] | Inhibition of bFGF-induced proliferation of HUVECs (in words) |
| --- | --- | --- |
| CC(C)C[C@H](NC(=O)[C@H](C)NC(=O)[C@H](C)NC(=O)[C@H](CC(C)C)NC(=O)[C@H](CCC(N)=O)NC(=O)[C@H](CCC(=O)O)NC(=O)[C@H](CCCNC(=N)N)NC(=O)[C@H](CO)NC(=O)[C@H](CCC(N)=O)NC(=O)[C@H](C)NC(=O)[C@H](CCCNC(=N)N)NC(=O)[C@H](Cc1ccccc1)NC(=O)[C@H](Cc1ccc(O)cc1)NC(=O)[C@H](CCCNC(=N)N)NC(=O)[C@H](CCC(=O)O)NC(=O)[C@H](CCC(=O)O)NC(=O)[C@H](CCC(=O)O)NC(=O)[C@H](C)NC(=O)[C@H](CCC(N)=O)NC(=O)[C@H](CCC(=O)O)NC(=O)[C@H](CCCNC(=N)N)NC(=O)[C@H](CCCCN)NC(=O)CNC(=O)[C@@H](N)Cc1ccccc1)C(=O)O [EP01] | 210 | inhibited bFGF-induced HUVEC proliferation |
| CC[C@H](C)[C@H](NC(=O)[C@H](CCCCN)NC(=O)[C@H](CCCNC(=N)N)NC(=O)[C@H](C)NC(=O)[C@H](CCCNC(=N)N)NC(=O)[C@H](CO)NC(=O)[C@@H](NC(=O)[C@@H](NC(=O)[C@H](CC(C)C)NC(=O)[C@H](CCCCN)NC(=O)[C@H](CC(=O)O)NC(=O)[C@H](CCC(=O)O)NC(=O)[C@H](CCC(=O)O)NC(=O)[C@H](CO)NC(=O)[C@H](CC(C)C)NC(=O)[C@H](CCC(=O)O)NC(=O)[C@H](CC(=O)O)NC(=O)[C@H](CCSC)NC(=O)CN)[C@@H](C)O)C(C)C)C(=O)N[C@@H](CCC(N)=O)C(=O)N[C@@H](CCCNC(=N)N)C(=O)N[C@@H](Cc1ccccc1)C(=O)O [EP02] | 235 | inhibited bFGF-induced HUVEC proliferation |
| CC[C@H](C)[C@H](NC(=O)[C@H](C)NC(=O)[C@@H](NC(=O)[C@@H](NC(=O)[C@H](CC(=O)O)NC(=O)[C@H](CCC(N)=O)NC(=O)[C@H](CC(C)C)NC(=O)[C@@H](N)CO)[C@@H](C)CC)[C@@H](C)CC)C(=O)N[C@@H](CC(C)C)C(=O)NCC(=O)N[C@@H](CCSC)C(=O)N[C@@H](CC(=O)O)C(=O)N[C@@H](CCC(=O)O)C(=O)N[C@@H](CC(C)C)C(=O)N[C@@H](CO)C(=O)N[C@@H](CCC(=O)O)C(=O)N[C@@H](CCC(=O)O)C(=O)N[C@@H](CC(=O)O)C(=O)N[C@@H](CCCCN)C(=O)N[C@@H](CC(C)C)C(=O)N[C@H](C(=O)N[C@@H](CS)C(=O)O)[C@@H](C)O [EP03] | 245 | inhibited bFGF-induced HUVEC proliferation |
